Sequences of proteins named here, by UniProt entry; tags and fusion partners are left off.
UniProt P14902, whole entry: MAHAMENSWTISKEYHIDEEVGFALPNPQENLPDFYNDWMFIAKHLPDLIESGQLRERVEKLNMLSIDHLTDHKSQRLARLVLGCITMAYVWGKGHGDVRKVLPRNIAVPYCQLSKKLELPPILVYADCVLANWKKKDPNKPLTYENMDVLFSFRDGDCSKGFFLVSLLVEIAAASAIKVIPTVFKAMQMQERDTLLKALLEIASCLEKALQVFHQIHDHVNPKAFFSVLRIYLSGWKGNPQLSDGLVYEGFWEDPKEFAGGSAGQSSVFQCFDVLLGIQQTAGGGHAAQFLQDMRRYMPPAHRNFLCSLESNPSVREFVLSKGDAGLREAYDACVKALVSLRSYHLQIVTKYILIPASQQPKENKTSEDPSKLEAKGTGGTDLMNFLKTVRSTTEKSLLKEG

According to patent publication US8389568B2, “IDO inhibitors and methods of use thereof” (Lankenau Institute for Medical Research, priority 2007, dated 2013):

Molecular target: human IDO (Homo sapiens, UniProt P14902)
Assay: IDO inhibition enzyme assay (N-formylkynurenine/kynurenine formation read at 490 nm)
Format: biochemical
Details: purified recombinant IDO(1); L-Trp substrate; ascorbic acid/methylene blue reductant, catalase; pH 6.5; 37° C. for 60 minutes
Description: Compounds of the instant invention were analyzed for inhibition of human IDO. The assay was conducted according to a literature protocol, with ascorbic acid and methylene blue serving the role of reductant (Littlejohn et al. (2000) Protein Expression and Purification, 19:22-29; Sono et al. (1989) J. Biol. Chem., 264:1616-1622). Catalase was added to prevent IDO decomposition from peroxide side products (Ohnishi et al. (1977) J. Biol. Chem., 252:4643-4647). The enzyme assay monitored for formation of N-formylkynurenine by hydrolyzing the formyl group and spectrophotometrically analyzing for the conjugated imine generated from kynurenine and 4-(dimethylamino) benzaldehyde.
Specifically, the inhibition assays were performed in a 96-well microtiter plate as previously described with a small modification (Littlejohn et al. (2000) Prot. Expr. Purif., 19:22-29). Briefly, the reaction mixture contained 50 mM potassium phosphate buffer (pH 6.5), 40 mM ascorbic acid, 400 μg/ml catalase, 20 μM methylene blue and purified recombinant IDO(1) optimized based on its activity. […] The yellow color generated from the reaction with kynurenine was measured at 490 nm using a Synergy HT microtiter plate reader (Bio-Tek, Winooski, Vt.). The data was analyzed using Graph Pad Prism 4 software (Graph Pad Software Inc., San Diego, Calif.).

## CC1(C)OC2=C(C(=O)c3ccccc3C2=O)[C@H](NCc2ccccc2)[C@@H]1O [Compound 16, (3S,4S)-4-(benzylamino)-3-hydroxy-2,2-dimethyl-3,4-dihydro-2H-benzo[g]chromene-5,10-dione]
  IC50: 125 nM

## CC1(C)OC2=C(C(=O)c3ccccc3C2=O)[C@H](NCc2ccccc2)[C@@H]1O [Compound 26, (3S,4S)-N-benzyl-3-hydroxy-2,2-dimethyl-5,10-dioxo-3,4,5,10-tetrahydro-2H-benzo[g]chromen-4-aminium chloride]
  IC50: 286 nM
